Experimental data reported in PubChem BioAssay AID1326 (NMMLSC, 2008).
The list shows a part of the results, in another mix than the full data. The source made the active and inactive calls. Cut-off read from the data, not from the text of the source: active = inhibition above about 40%; inactive = the rest.

Protein sequences, listed by entry. Tags and fused reporters are not part of them.
UniProt P08183, whole entry: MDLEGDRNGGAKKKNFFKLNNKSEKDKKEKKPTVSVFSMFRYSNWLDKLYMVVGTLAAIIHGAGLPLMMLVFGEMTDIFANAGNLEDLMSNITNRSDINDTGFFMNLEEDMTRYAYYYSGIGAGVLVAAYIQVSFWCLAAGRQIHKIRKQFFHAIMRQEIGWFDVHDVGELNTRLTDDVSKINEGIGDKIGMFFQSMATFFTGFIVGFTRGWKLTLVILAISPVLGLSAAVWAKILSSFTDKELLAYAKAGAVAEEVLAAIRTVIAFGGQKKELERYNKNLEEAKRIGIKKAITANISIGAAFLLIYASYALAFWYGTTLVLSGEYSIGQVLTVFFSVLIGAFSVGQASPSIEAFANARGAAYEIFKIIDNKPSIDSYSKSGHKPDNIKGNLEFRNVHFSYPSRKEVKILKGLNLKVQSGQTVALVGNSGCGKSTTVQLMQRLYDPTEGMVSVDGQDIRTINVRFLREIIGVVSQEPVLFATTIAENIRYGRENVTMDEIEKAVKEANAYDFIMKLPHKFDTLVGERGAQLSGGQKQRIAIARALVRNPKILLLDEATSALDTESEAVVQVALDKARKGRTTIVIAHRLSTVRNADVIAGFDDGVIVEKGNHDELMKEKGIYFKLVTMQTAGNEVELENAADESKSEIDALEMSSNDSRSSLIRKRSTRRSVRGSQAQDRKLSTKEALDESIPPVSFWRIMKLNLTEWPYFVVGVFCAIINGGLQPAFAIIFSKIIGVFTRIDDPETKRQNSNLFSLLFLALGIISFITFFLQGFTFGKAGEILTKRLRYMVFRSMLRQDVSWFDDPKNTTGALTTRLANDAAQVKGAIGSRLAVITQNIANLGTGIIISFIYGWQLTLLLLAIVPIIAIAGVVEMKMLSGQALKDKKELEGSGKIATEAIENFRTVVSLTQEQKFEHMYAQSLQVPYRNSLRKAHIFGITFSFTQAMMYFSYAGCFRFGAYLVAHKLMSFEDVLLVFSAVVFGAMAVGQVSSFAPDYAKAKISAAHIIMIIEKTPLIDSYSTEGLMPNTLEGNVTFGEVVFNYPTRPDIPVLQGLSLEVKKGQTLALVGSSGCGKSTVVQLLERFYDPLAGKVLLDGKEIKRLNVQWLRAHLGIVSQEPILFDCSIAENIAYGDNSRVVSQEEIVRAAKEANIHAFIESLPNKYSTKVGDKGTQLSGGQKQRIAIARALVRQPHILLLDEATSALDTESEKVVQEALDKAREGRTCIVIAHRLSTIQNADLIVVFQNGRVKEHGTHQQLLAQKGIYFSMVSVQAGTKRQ

Molecular target: ATP-dependent translocase ABCB1 (Homo sapiens) (UniProt P08183)
Experiment: ABCB1 efflux pump inhibitors, primary screen, cell-based, multiplex, flow cytometry, ABCG2 counter-screen (AID 1326);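 note: 0% = vehicle and 100% = reference inhibitor; higher value means more JC-1 retained so stronger ABCB1 efflux block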
Settings: CCRF-Adr cells, JC-1 efflux, at 6.6 µM, stronger effect = higher value

Question: How did the inhibition turn out when `Cc1cc(C)cc(OP(C)(N)=O)c1` (stereo unspecified) was run?
Answer: inactive: 1.85%
